“Also recorded” adds a separate entry of the source.
Assays:
[1] = target: T1, ovine FPB prostanoid receptor (Ovis aries, UniProt Q28905); experiment: Immunoprecipitation and immunoblotting of β-catenin; type: cell-based; settings: 1 μM PGF2α, 1 hour
T1 construct: expressed in transfected cells
Procedure: (§1) FIG. 2. A, Immunoblot of β-catenin in particulate and cytosolic fractions prepared from FPA and FPB expressing cells after treatment with either vehicle (lanes a and c) or 1 μM PGF2α (lanes b and d) for 1 hour at 37° C. B, RT-PCR of β-catenin and control glyceraldehyde-3-phosphate dehydrogenase (GAPDH) mRNA from FPA and FPB expressing cells after the same treatment. Immunoblotting (10 μg of protein per sample) and RT-PCR were done as described in Experimental Procedures. Results for both the immunoblotting and RT-PCR are representative of three independent experiments.
(§2) FIG. 3. Immunoblot (IB) of β-catenin (β-cat) in cytosolic fractions and nuclear extracts; and immunoblot of serine/threonine phosphorylated (PS/PT) cytosolic β-catenin, from FPA and FPB expressing cells after treatment with either vehicle (lanes a and c) or 1 μM PGF2α (lanes b and d) for 1 hour at 37° C. Cytosolic fractions were prepared as described in Experimental Procedures and samples (100 μg protein) were immunoprecipitated (IP) with antibodies to β-catenin and were first probed with antibodies to phosphoserine and phosphothreonine (upper panel); and then were stripped and reprobed with antibodies to β-catenin (middle panel). Immunoblotting of nuclear extracts (lower panel) was done with 10 μg protein per sample without prior immunoprecipitation. Results are representative of three independent experiments.
(§3) Immunoprecipitaaion and Blotting. Cells were scraped and sonicated in a lysis buffer consisting of 20 mM Tris-HCl (pH 7.5), 10 mM EDTA, 2 mM EGTA, 2 mM phenylmethylsulfonylfluoride, 0.1 mg/ml leupeptin and 2 mM sodium vanadate. Samples were centrifuged (16,000×g) for 15 minutes at 4° C. and the supernatant (cytosolic fraction) was removed and the pellet (particulate fraction) was solubilized with lysis buffer containing 0.2% Triton X-100 and then centrifuged again to remove insoluble debris. For immunoprecipitation, samples were rotated for 2 hours at 4° C. with antibodies to β-catenin, followed by addition of protein-G sepharose (Amersham) and rotation for another hour. The sepharose was washed with lysis buffer and then resuspended with SDS-PAGE sample buffer and boiled. Samples were electrophoresed on 7.5% SDS-polyacrylamide gels, transferred to nitrocellulose membranes, and incubated with either antibodies to P-catenin or with a mixture of mouse monoclonal antibodies to phosphoserine (Sigma) and phosphothreonine (Sigma). The membranes were washed and incubated with horseradish peroxidase-conjugated goat anti-mouse secondary antibodies and were visualized by enhanced chemiluminiescence (SuperSignal, Pierce). Nuclear extracts were prepared according to the method of Dignam as modified by Westin et al. (7).

Protein sequences, listed by entry. Tags and fused reporters are not part of them. Residues count along the entry.
UniProt Q28905, 1-317 isoform Q28905-2: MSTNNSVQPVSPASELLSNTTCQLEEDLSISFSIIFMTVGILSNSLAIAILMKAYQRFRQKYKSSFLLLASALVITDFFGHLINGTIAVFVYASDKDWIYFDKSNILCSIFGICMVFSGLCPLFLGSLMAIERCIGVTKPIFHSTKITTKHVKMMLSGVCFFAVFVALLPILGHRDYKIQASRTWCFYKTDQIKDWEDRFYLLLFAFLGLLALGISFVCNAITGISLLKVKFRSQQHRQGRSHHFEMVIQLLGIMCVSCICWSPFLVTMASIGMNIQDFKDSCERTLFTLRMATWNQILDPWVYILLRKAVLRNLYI

[2] = target: T2, ovine FPA prostanoid receptor (Ovis aries, UniProt Q28905); experiment: as above; type: cell-based; settings: 1 μM PGF2α, 1 hour, FPA expressing cells
T2 construct: expressed in transfected cells
Procedure: as §1, §2, §3

[3] = target: T1, ovine FPB prostanoid receptor; experiment: Phase contrast microscopy of cell morphology; type: cell-based
Procedure: (§4) FIG. 1. A, phase contrast microscopy (x225) of FPA and FPB expressing cells after treatment with either vehicle (panels a and c) or 1 μM PGF2α (panels b and d) for 1 hour at 37° C. B, β-catenin FITC immunofluorescence (green) and nuclear DAPI fluorescence (blue) microscopy (x225) of FPA and FPB cells after the same treatment. Cells were labeled and prepared for microscopy as described in Experimental Procedures. The results are representative of more than three experiments.
(§5) FIG. 4. A, phase contrast microscopy (x225) and B, stimulation of Tcf/Lef responsive luciferase reporter gene activity after FPA and FPB expressing cells were treated with either vehicle or 1 μM PGF2α for 1 hour and were washed extensively drug-free media and incubated for an additional 16 hours at 37° C. in drug-free media. The transfection conditions, drug washout, and luciferase assay are provided in Experimental Procedures. Luciferase data are normalized to the vehicle treated FPA cells and are the means+/−the standard errors of three independent experiments each performed in duplicate.
(§6) Immunofluorescence Microscopy. HEK-293 cells stably expressing the ovine FPA and FPB prostanoid receptor isoforms (5) were split and grown in six-well plates containing 22-mm round glass cover slips for 3-4 days. Cells were treated with either vehicle (sodium carbonate, 0.002% final) or 1 μM PGF2α and were rapidly washed, fixed, and incubated with a 1:1000 dilution of a mouse monoclonal antibody to β-catenin (Transduction Laboratories). They were then washed and incubated with a 1:4000 dilution of an FITC-conjugated goat anti-mouse secondary antibody (Sigma). Nuclei were stained with 4′,6-diamidino-2-phenylindole (DAPI, Sigma). Cells were visualized by phase-contrast and epifluorescence microscopy as previously described (6).

[4] = target: T2, ovine FPA prostanoid receptor; experiment: Phase contrast microscopy of cell morphology; type: cell-based
Procedure: as §4, §5, §6

[5] = target: T1, ovine FPB prostanoid receptor; settings: FPB expressing cells, after removal of PGF2α; cited from earlier work
[6] = target: T2, ovine FPA prostanoid receptor; settings: FPA expressing cells; cited from earlier work
[7] = target: T1, ovine FPB prostanoid receptor; experiment: Immunofluorescence microscopy of β-catenin and E-cadherin localization; type: cell-based; settings: 1 μM PGF2α, FPB expressing cells
Procedure: as §4, §6

[8] = target: T2, ovine FPA prostanoid receptor; experiment: as above; type: cell-based; settings: 1 μM PGF2α, FPA expressing cells
Procedure: as §4, §6

[9] = target: T1, ovine FPB prostanoid receptor; settings: FPB expressing cells; cited from earlier work
[10] = target: T2, ovine FPA prostanoid receptor; settings: FPA expressing cells, after removal of PGF2α; cited from earlier work
[11] = target: T1, ovine FPB prostanoid receptor; experiment: Tcf/Lef Reporter Gene Assay; type: cell-based; settings: FPB expressing cells
Procedure: as §5
(§7) Tcf/Lef Reporter Gene Assay. Cells were split into 10-cm dishes and the next day were transiently transfected using FuGENE-6 (Roche) and either 10 jLg/dish of the wildtype Tcf/Lef reporter plasmid, TOPflash, or the mutant plasmid, FOPflash. FOPflash differs from TOPflash by mutation of its Tcf binding sites and serves to differentiate Tcf/β-catenin mediated signaling from background (Upstate Biotechnology). Cells were incubated overnight and were treated for 1 hour at 37° C. with either vehicle or 1 JμM PGF2α. They were then rapidly washed three times each with 2 ml of Opti-MEM (Life Technologies) as previously described (6) and incubated for 16 hours at 37° C. in 10 ml of Opti-MEM containing 250 μg/ml geneticin, 200 μg/ml hygromycin B, and 100 μg/ml gentamicin. Cells were placed on ice, rinsed twice with ice cold PBS, and extracts were prepared using the Luciferase Assay System (Promega). Luciferase activity in the extracts (˜500 ng protein/sample) was measured using a Turner TD-20/20 luminometer and was corrected for background by subtraction of FOP-FLASH values from corresponding TOP-FLASH values.

[12] = target: T2, ovine FPA prostanoid receptor; experiment: Tcf/Lef Reporter Gene Assay; type: cell-based; settings: FPA expressing cells
Procedure: as §5, §7

[13] = target: T1, ovine FPB prostanoid receptor; experiment: RT-PCR of β-catenin mRNA; type: cell-based; settings: 1 μM PGF2α, 1 hour, FPB expressing cells
Procedure: as §1
(§8) RT-PCR. RT was done using the Superscript Preamplification System (Life Technologies) and 1 μg of RNA/sample that had been pretreated with DNase I. This was followed by PCR using an initial incubation at 94° C. for 5 minutes, followed by 20 cycles of 94° C., 60° C., and 68° C. each for 2 minutes, and a final incubation at 68° C. for 10 minutes. The human β-catenin and GAPDH primner pairs were exactly according to Rezvani & Liew (8). Product sizes were 521 bp for β-catenin and 737 bp for GAPDH and were resolved by electrophoresis on 1.5% agarose gels. Preliminary experiments were done to find the optimal conditions for quantitative amplification of β-catenin and GAPDH rnRNA.

[14] = target: T2, ovine FPA prostanoid receptor; experiment: RT-PCR of β-catenin mRNA; type: cell-based; settings: 1 μM PGF2α, 1 hour, FPA expressing cells
Procedure: as §1, §8

[15] = 1 μM PGF2α 1 hour, washout, 16 hours
[16] = 1 μM PGF2α, 1 hour, data not shown

levels of β-catenin in the particulate fraction ([1]; FPB expressing cells): little effect
serine/threonine phosphorylation of cytosolic β-catenin ([1]; FPB expressing cells): dramatic fall in phosphorylation
β-catenin in nuclear extracts ([1]; FPB expressing cells as compared with FPA expressing cells): significantly higher levels of β-catenin
levels of β-catenin in the particulate fraction [2]: little effect
serine/threonine phosphorylation of cytosolic β-catenin [2]: marked increase in phosphorylation
cell morphology 16 hours after washout ([3]; 1 μM PGF2α 1 hour, washout, 16 hours in drug-free media, FPB expressing cells): remain rounded and aggregated
effects on E-cadherin localization ([7]; data not shown): not apparent
β-catenin localization (accumulation in regions of cell-to-cell contact) ([8]; 1 hour): but not in FPA expressing cells
effects on E-cadherin localization ([8]; data not shown): not apparent
Tcf/Lef luciferase activity relative to vehicle control or PGF2α treated FPA cells [11, 15]: roughly 6.5 fold
Tcf/Lef luciferase reporter gene activity 16 hours after agonist removal [11, 15]: profound stimulation
Tcf/Lef luciferase reporter gene activity immediately following treatment [11, 16]: did not stimulate luciferase activity
Tcf/Lef luciferase reporter gene activity 16 hours after agonist removal [12, 15]: essentially absent
Tcf/Lef luciferase reporter gene activity immediately following treatment [12, 16]: did not stimulate luciferase activity
β-catenin mRNA levels [13]: not affected
β-catenin mRNA levels [14]: not affected
Substance: prostaglandin F2α [PGF2α]
levels of cytosolic β-catenin ([1]; cytosolic fraction, FPB expressing cells): increased the levels of cytosolic β-catenin; also recorded: further increase in cytosolic β-catenin
levels of cytosolic β-catenin ([2]; cytosolic fraction): increased the levels of cytosolic β-catenin; also recorded: levels of cytosolic β-catenin increase
morphological changes ([3]; 1 μM PGF2α, 1 hour, HEK cells stably expressing ovine FPB): loss of filopodia and formation of cell aggregates
cell morphology 16 hours after washout ([4]; 1 μM PGF2α 1 hour, washout, 16 hours in drug-free media, FPA expressing cells): return to their original dendritic morphology
morphological changes ([4]; 1 μM PGF2α, 1 hour, HEK cells stably expressing ovine FPA): loss of filopodia and formation of cell aggregates
reversal of morphological changes following removal of PGF2α [5]: remain rounded even after 48 hours
Rho activation and downstream effects [6]: activates Rho leading to the formation of actin stress fibers, phosphorylation of p125 focal adhesion kinase and cell rounding
β-catenin localization (accumulation in regions of cell-to-cell contact) ([7]; 1 hour): marked accumulation of β-catenin in regions of cell-to-cell contact
Rho activation and downstream effects [9]: activates Rho leading to the formation of actin stress fibers, phosphorylation of p125 focal adhesion kinase and cell rounding
time to reversal of morphological changes following removal of PGF2α [10]: ≤ 1 hour

— patent publication US20040082013A1, “Methods for screening for substances which inhibit fp prostanoid receptor interaction with a compound having pgf2alpha activity and methods of treating cancer” (priority 2003, published 2004)
